Literature values, collected in article PMC6165679.

Sequences of proteins named here, by UniProt entry; tags and fusion partners are left off. A change or cut given only in a name is not applied to a line headed by its entry. Residues count along the entry.
UniProt P35414: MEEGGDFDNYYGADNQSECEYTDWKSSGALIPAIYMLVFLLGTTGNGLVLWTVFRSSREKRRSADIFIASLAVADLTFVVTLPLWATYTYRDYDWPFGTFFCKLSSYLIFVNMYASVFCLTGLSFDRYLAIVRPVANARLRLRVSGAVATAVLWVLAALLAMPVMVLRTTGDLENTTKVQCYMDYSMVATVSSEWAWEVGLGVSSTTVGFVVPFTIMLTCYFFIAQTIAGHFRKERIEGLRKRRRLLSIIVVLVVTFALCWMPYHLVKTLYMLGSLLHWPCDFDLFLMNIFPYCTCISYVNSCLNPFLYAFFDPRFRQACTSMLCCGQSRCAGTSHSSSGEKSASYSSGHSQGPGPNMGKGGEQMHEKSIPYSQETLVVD
UniProt Q9ULZ1, 39-77: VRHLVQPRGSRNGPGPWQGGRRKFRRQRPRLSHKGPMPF

Molecular target: APJ receptor (Homo sapiens) (UniProt P35414)

Q: Which Ki does the source give for “apelin-36 apelin-36 (from UniProt Q9ULZ1)” here?
A: Its Ki is 0.05 nM.
